Measurements as given in ChEMBL document CHEMBL1124775 (J Med Chem, 1990).

Experiments:
Rattus norvegicus [1] = experiment: In vivo binding specificity the compound in rat striatum at 30 min of intravenous injection.
Rattus norvegicus [2] = experiment: In vivo binding specificity the compound in rat striatum at 60 min of intravenous injection.
Rattus norvegicus [3] = experiment: In vivo binding specificity the compound in rat cerebellum at 30 min of intravenous injection.
Rattus norvegicus [4] = experiment: In vivo binding specificity the compound in rat cerebellum at 60 min of intravenous injection.
Rattus norvegicus [5] = experiment: Evaluation of the biodistribution ofcompound in bone of female Sprague-Dawley rats at 5 min of intravenous injection.; conditions: in vivo, Bone element
Rattus norvegicus [6] = experiment: Evaluation of the biodistribution ofcompound in bone of female Sprague-Dawley rats at 60 min of intravenous injection.; conditions: in vivo, 1 h, Bone element
Rattus norvegicus [7] = experiment: Evaluation of the biodistribution ofcompound in blood of female Sprague-Dawley rats at 5 min of intravenous injection.; conditions: in vivo
Rattus norvegicus [8] = experiment: Evaluation of the biodistribution ofcompound in bone of female Sprague-Dawley rats at 30 min of intravenous injection.; conditions: in vivo, 0.5 h, Bone element
Rattus norvegicus [9] = experiment: Evaluation of the biodistribution ofcompound in brain of female Sprague-Dawley rats at 5 min of intravenous injection.; conditions: in vivo
Rattus norvegicus [10] = experiment: Evaluation of the biodistribution ofcompound in liver of female Sprague-Dawley rats at 5 min of intravenous injection.; conditions: in vivo
Rattus norvegicus [11] = experiment: Evaluation of the biodistribution ofcompound in brain of female Sprague-Dawley rats at 30 min of intravenous injection.; conditions: in vivo, 0.5 h
Rattus norvegicus [12] = experiment: Evaluation of the biodistribution ofcompound in blood of female Sprague-Dawley rats at 30 min of intravenous injection.; conditions: in vivo, 0.5 h
Rattus norvegicus [13] = experiment: Evaluation of the biodistribution ofcompound in blood of female Sprague-Dawley rats at 60 min of intravenous injection.; conditions: in vivo, 1 h
Rattus norvegicus [14] = experiment: Evaluation of the biodistribution ofcompound in brain of female Sprague-Dawley rats at 60 min of intravenous injection.; conditions: in vivo, 1 h
Rattus norvegicus [15] = experiment: Evaluation of the biodistribution ofcompound in kidney of female Sprague-Dawley rats at 5 min of intravenous injection.; conditions: in vivo
Rattus norvegicus [16] = experiment: Evaluation of the biodistribution ofcompound in liver of female Sprague-Dawley rats at 30 min of intravenous injection.; conditions: in vivo, 0.5 h
Rattus norvegicus [17] = experiment: Evaluation of the biodistribution ofcompound in liver of female Sprague-Dawley rats at 60 min of intravenous injection.; conditions: in vivo, 1 h
Rattus norvegicus [18] = experiment: Evaluation of the biodistribution ofcompound in muscle of female Sprague-Dawley rats at 5 min of intravenous injection.; conditions: in vivo, Muscle tissue
Rattus norvegicus [19] = experiment: Evaluation of the biodistribution ofcompound in kidney of female Sprague-Dawley rats at 30 min of intravenous injection.; conditions: in vivo, 0.5 h
Rattus norvegicus [20] = experiment: Evaluation of the biodistribution ofcompound in kidney of female Sprague-Dawley rats at 60 min of intravenous injection.; conditions: in vivo, 1 h
Rattus norvegicus [21] = experiment: Evaluation of the biodistribution ofcompound in muscle of female Sprague-Dawley rats at 30 min of intravenous injection.; conditions: in vivo, 0.5 h, Muscle tissue
Rattus norvegicus [22] = experiment: Evaluation of the biodistribution ofcompound in muscle of female Sprague-Dawley rats at 60 min of intravenous injection.; conditions: in vivo, 1 h, Muscle tissue
Rattus norvegicus [23] = experiment: Evaluation of the biodistribution ofcompound in striatum of female Sprague-Dawley rats at 5 min of intravenous injection.; conditions: in vivo
Rattus norvegicus [24] = experiment: Evaluation of the biodistribution ofcompound in striatum of female Sprague-Dawley rats at 30 min of intravenous injection.; conditions: in vivo, 0.5 h
Rattus norvegicus [25] = experiment: Evaluation of the biodistribution ofcompound in striatum of female Sprague-Dawley rats at 60 min of intravenous injection.; conditions: in vivo, 1 h
Rattus norvegicus [26] = experiment: Evaluation of the biodistribution ofcompound in cerebellum of female Sprague-Dawley rats at 5 min of intravenous injection.; conditions: in vivo
Rattus norvegicus [27] = experiment: Evaluation of the biodistribution ofcompound in cerebellum of female Sprague-Dawley rats at 30 min of intravenous injection.; conditions: in vivo, 0.5 h
Rattus norvegicus [28] = experiment: Evaluation of the biodistribution ofcompound in cerebellum of female Sprague-Dawley rats at 60 min of intravenous injection.; conditions: in vivo, 1 h
Rattus norvegicus [29] = experiment: Evaluation of the biodistribution ofcompound in frontal cortex of female Sprague-Dawley rats at 5 min of intravenous injection.; conditions: in vivo
Rattus norvegicus [30] = experiment: Evaluation of the biodistribution ofcompound in frontal cortex of female Sprague-Dawley rats at 60 min of intravenous injection.; conditions: in vivo, 1 h
Rattus norvegicus [31] = experiment: Evaluation of the biodistribution ofcompound in frontal cortex of female Sprague-Dawley rats at 30 min of intravenous injection.; conditions: in vivo, 0.5 h
Rattus norvegicus [32] = experiment: Evaluation of the biodistribution ofcompound in bone of female Sprague-Dawley rats at 5 min of intravenous injection with naloxone; conditions: in vivo, Bone element
Rattus norvegicus [33] = experiment: Evaluation of the biodistribution ofcompound in blood of female Sprague-Dawley rats at 5 min of intravenous injection with naloxone; conditions: in vivo
Rattus norvegicus [34] = experiment: Evaluation of the biodistribution ofcompound in bone of female Sprague-Dawley rats at 30 min of intravenous injection with naloxone; conditions: in vivo, 0.5 h, Bone element
Rattus norvegicus [35] = experiment: Evaluation of the biodistribution ofcompound in brain of female Sprague-Dawley rats at 5 min of intravenous injection with naloxone; conditions: in vivo
Rattus norvegicus [36] = experiment: Evaluation of the biodistribution ofcompound in liver of female Sprague-Dawley rats at 5 min of intravenous injection with naloxone; conditions: in vivo
Rattus norvegicus [37] = experiment: Evaluation of the biodistribution ofcompound in brain of female Sprague-Dawley rats at 30 min of intravenous injection with naloxone; conditions: in vivo, 0.5 h
Rattus norvegicus [38] = experiment: Evaluation of the biodistribution ofcompound in blood of female Sprague-Dawley rats at 30 min of intravenous injection with naloxone; conditions: in vivo, 0.5 h
Rattus norvegicus [39] = experiment: Evaluation of the biodistribution ofcompound in kidney of female Sprague-Dawley rats at 5 min of intravenous injection with naloxone; conditions: in vivo
Rattus norvegicus [40] = experiment: Evaluation of the biodistribution ofcompound in liver of female Sprague-Dawley rats at 30 min of intravenous injection with naloxone; conditions: in vivo, 0.5 h
Rattus norvegicus [41] = experiment: Evaluation of the biodistribution ofcompound in muscle of female Sprague-Dawley rats at 5 min of intravenous injection with naloxone; conditions: in vivo, Muscle tissue
Rattus norvegicus [42] = experiment: Evaluation of the biodistribution ofcompound in kidney of female Sprague-Dawley rats at 30 min of intravenous injection with naloxone; conditions: in vivo, 0.5 h
Rattus norvegicus [43] = experiment: Evaluation of the biodistribution ofcompound in muscle of female Sprague-Dawley rats at 30 min of intravenous injection with naloxone; conditions: in vivo, 0.5 h, Muscle tissue
Rattus norvegicus [44] = experiment: Evaluation of the biodistribution ofcompound in striatum of female Sprague-Dawley rats at 5 min of intravenous injection with naloxone; conditions: in vivo
Rattus norvegicus [45] = experiment: Evaluation of the biodistribution ofcompound in striatum of female Sprague-Dawley rats at 30 min of intravenous injection with naloxone; conditions: in vivo, 0.5 h
Rattus norvegicus [46] = experiment: Evaluation of the biodistribution ofcompound in cerebellum of female Sprague-Dawley rats at 5 min of intravenous injection with naloxone; conditions: in vivo
Rattus norvegicus [47] = experiment: Evaluation of the biodistribution ofcompound in cerebellum of female Sprague-Dawley rats at 30 min of intravenous injection with naloxone; conditions: in vivo, 0.5 h
Rattus norvegicus [48] = experiment: Evaluation of the biodistribution ofcompound in frontal cortex of female Sprague-Dawley rats at 5 min of intravenous injection with naloxone; conditions: in vivo
Rattus norvegicus [49] = experiment: Evaluation of the biodistribution ofcompound in frontal cortex of female Sprague-Dawley rats at 30 min of intravenous injection with naloxone; conditions: in vivo, 0.5 h
[50] = Ratio of activity localized in the cortex (percent injected dose/gram) to that localized in the cerebellum (percent injected dose/gram) at 5 min
[51] = Ratio of activity localized in the cortex (percent injected dose/gram) to that localized in the cerebellum (percent injected dose/gram) at 30 min
[52] = Ratio of activity localized in the cortex (percent injected dose/gram) to that localized in the cerebellum (percent injected dose/gram) at 60 min
[53] = Ratio of activity localized in the striatum (percent injected dose/gram) to that localized in the cerebellum (percent injected dose/gram) at 5 min
[54] = Ratio of activity localized in the striatum (percent injected dose/gram) to that localized in the cerebellum (percent injected dose/gram) at 30 min
[55] = Ratio of activity localized in the striatum (percent injected dose/gram) to that localized in the cerebellum (percent injected dose/gram) at 60 min
Rattus norvegicus [56] = organism: Rattus norvegicus; experiment: Ratio of activity localized in the cortex (percent injected dose/gram) to that localized in the cerebellum (percent injected dose/gram) at 5 min with naloxone
Rattus norvegicus [57] = organism: Rattus norvegicus; experiment: Ratio of activity localized in the cortex (percent injected dose/gram) to that localized in the cerebellum (percent injected dose/gram) at 30 min with naloxone
Rattus norvegicus [58] = organism: Rattus norvegicus; experiment: Ratio of activity localized in the striatum (percent injected dose/gram) to that localized in the cerebellum (percent injected dose/gram) at 5 min with naloxone
Rattus norvegicus [59] = organism: Rattus norvegicus; experiment: Ratio of activity localized in the striatum (percent injected dose/gram) to that localized in the cerebellum (percent injected dose/gram) at 30 min with naloxone
[60] = Specificity of binding in vivo was measured as the ratio of activity localized in the striatum (percent injected dose/gram) to that localized in the cerebellum (percent injected dose/gram) at 30 min
[61] = Specificity of binding in vivo was measured as the ratio of activity localized in the striatum (percent injected dose/gram) to that localized in the cerebellum (percent injected dose/gram) at 60 min

For `CO[C@]12CC[C@@]3(C[C@@H]1C(C)(C)O)[C@H]1Cc4ccc(O)c5c4[C@@]3(CCN1CCC[18F])[C@H]2O5`, the ID (per g of tissue) (Rattus norvegicus [1]) was 0.342%, the ID (per g of tissue) (Rattus norvegicus [2]) was 0.09% and the ID (per g of tissue) (Rattus norvegicus [3]) was 0.1%. For the same compound, the ID (per g of tissue) (Rattus norvegicus [4]) was 0.033%, the ID (per g of organ) (Rattus norvegicus [5]) was 4.94% and the ID (per g of organ) (Rattus norvegicus [6]) was 2.89%. The ID (per g of organ) (Rattus norvegicus [7]) was 4.69%, the ID (per g of organ) (Rattus norvegicus [8]) was 3.73% and the ID (per g of organ) (Rattus norvegicus [9]) was 1.83%. It also gave an ID (per g of organ) (Rattus norvegicus [10]) of 7.84%, an ID (per g of organ) (Rattus norvegicus [11]) of 0.37% and an ID (per g of organ) (Rattus norvegicus [12]) of 1.46%. The ID (per g of organ) (Rattus norvegicus [13]) was 0.71%, the ID (per g of organ) (Rattus norvegicus [14]) was 0.094% and the ID (per g of organ) (Rattus norvegicus [15]) was 1.16%. For the same compound, the ID (per g of organ) (Rattus norvegicus [16]) was 2.86%, the ID (per g of organ) (Rattus norvegicus [17]) was 0.98% and the ID (per g of organ) (Rattus norvegicus [18]) was 5.94%. It also gave an ID (per g of organ) (Rattus norvegicus [19]) of 0.2%, an ID (per g of organ) (Rattus norvegicus [20]) of 0.06% and an ID (per g of organ) (Rattus norvegicus [21]) of 3.4%. The ID (per g of organ) (Rattus norvegicus [22]) was 0.84%, the ID (per g of tissue) (Rattus norvegicus [23]) was 1.46% and the ID (per g of tissue) (Rattus norvegicus [24]) was 0.35%. It also gave an ID (per g of tissue) (Rattus norvegicus [25]) of 0.103%, an ID (per g of tissue) (Rattus norvegicus [26]) of 0.68% and an ID (per g of tissue) (Rattus norvegicus [27]) of 0.106%. For the same compound, the ID (per g of tissue) (Rattus norvegicus [28]) was 0.036%, the ID (per g of tissue) (Rattus norvegicus [29]) was 1.36% and the ID (per g of tissue) (Rattus norvegicus [30]) was 0.075%. For the same compound, the ID (per g of tissue) (Rattus norvegicus [31]) was 0.255%, the ID (per g of organ) (Rattus norvegicus [32]) was 3.43% and the ID (per g of organ) (Rattus norvegicus [33]) was 2.89%. For the same compound, the ID (per g of organ) (Rattus norvegicus [34]) was 2.21%, the ID (per g of organ) (Rattus norvegicus [35]) was 0.8% and the ID (per g of organ) (Rattus norvegicus [36]) was 6.59%. The ID (per g of organ) (Rattus norvegicus [37]) was 0.1%, the ID (per g of organ) (Rattus norvegicus [38]) was 1.17% and the ID (per g of organ) (Rattus norvegicus [39]) was 0.81%. For the same compound, the ID (per g of organ) (Rattus norvegicus [40]) was 2.1%, the ID (per g of organ) (Rattus norvegicus [41]) was 4.92% and the ID (per g of organ) (Rattus norvegicus [42]) was 0.18%. For the same compound, the ID (per g of organ) (Rattus norvegicus [43]) was 2.97%, the ID (per g of tissue) (Rattus norvegicus [44]) was 0.54% and the ID (per g of tissue) (Rattus norvegicus [45]) was 0.097%. For the same compound, the ID (per g of tissue) (Rattus norvegicus [46]) was 0.45%, the ID (per g of tissue) (Rattus norvegicus [47]) was 0.086% and the ID (per g of tissue) (Rattus norvegicus [48]) was 0.46%. It also gave an ID (per g of tissue) (Rattus norvegicus [49]) of 0.08%, a Ratio [50] of 1.71% and a Ratio [51] of 2.44%. The Ratio [52] was 2.37%, the Ratio [53] was 2.15% and the Ratio [54] was 3.37%. The Ratio [55] was 2.95%, the Ratio (Rattus norvegicus [56]) was 1.05% and the Ratio (Rattus norvegicus [57]) was 0.92%. It also gave a Ratio (Rattus norvegicus [58]) of 1.32%, a Ratio (Rattus norvegicus [59]) of 1.13% and a Ratio [60] of 3.32%. The Ratio [61] was 2.84%.
